For this test, the target named is Ras-related protein Rab-2A (Canis lupus familiaris) (UniProt P61105). The test is described as follows: Rab2 wildtype GTP-binding inhibitors, dose response, biochemical, GST-Rab2 beads, Bodipy-FL-GTP, flow cytometry, multiplex (AID 1337). To be noted: Bead-bound GST-Rab2 wt. (In general: A flow cytometer gives signals particle by particle.)

On to `CC1(C)Cc2c(sc(NC(=S)NC(=O)c3ccccc3)c2C(=O)O)CO1`, for which the EC50 (usually the concentration at which the effect is half-maximal) is 171 nM.

The values above are taken from PubChem BioAssay AID1337 (NMMLSC, 2008).
